{"source": "paper PMC11241344", "about": "“TriplEP-CPP: Algorithm for Predicting the Properties of Peptide Sequences” (International Journal of Molecular Sciences, 2024)", "key": {"[1]": {"tested_on": "McCoy mouse fibroblast cells", "assay_type": "cell-based", "conditions": "MTT test, peptide C=0,1 mM (100 µM), 24 h incubation at 37 °C, 5% CO2, absorbance 570/690 nm, mean ± standard deviation (n = 5)", "procedure": "(§1) Since the peptides predicted as CPPs are intended to be used as safe intracellular delivery systems, it is necessary to evaluate the degree of their toxicity to mammalian cells. For this purpose, the compounds investigated were added to human HaCaT keratinocyte cells and McCoy mouse fibroblast cells at a final concentration of 100 μM.\n(§2) One of the most important criteria in the search for new penetrating peptides is to ensure the safety of their further use and to assess potential problems and risks. […] Therefore, we incubated human HaCaT keratinocyte and McCoy mouse fibroblast cells with our synthesized compounds at a final concentration of 100 μM for 24 h at 37 °C. […] The use of a fluorescent tag makes it possible to observe the penetration of the peptides as well as their distribution and localization within the cells. For this purpose, the synthesized compounds were conjugated with the fluorescent tag NBD-F and incubated with cells at a final concentration of […] for 4 h at 37 °C. […]\n(§3) The cytotoxicity of the peptides was assessed using the MTT-test (3-(4,5-dimethylthiazol-2-yl)2,5-diphenyltetrazolium bromide) according to a standard protocol. […] The amount of MTT was measured spectrophotometrically at 570 nm and 690 nm using a Multiskan Ascent microplate photometer (ThermoScientific, Waltham, MA, USA). […]"}, "[2]": {"tested_on": "human HaCaT keratinocyte cells", "assay_type": "cell-based", "conditions": "MTT test, peptide C=0,1 mM (100 µM), 24 h incubation at 37 °C, 5% CO2, absorbance 570/690 nm, mean ± standard deviation (n = 5)", "procedure": "as §1, §2, §3"}}}
{"smiles": "CC[C@H](C)[C@H](NC(=O)[C@H](CCCCN)NC(=O)[C@@H](NC(=O)[C@H](CCC(N)=O)NC(=O)[C@@H](N)CCCNC(=N)N)[C@@H](C)CC)C(=O)N[C@@H](Cc1c[nH]c2ccccc12)C(=O)N[C@@H](Cc1ccccc1)C(=O)N[C@@H](CCC(N)=O)C(=O)N[C@@H](CC(N)=O)C(=O)N[C@@H](CCCNC(=N)N)C(=O)N[C@@H](CCCNC(=N)N)C(=O)N[C@@H](CCSC)C(=O)N[C@@H](CCCCN)C(=O)N[C@@H](Cc1c[nH]c2ccccc12)C(=O)N[C@@H](CCCCN)C(=O)N[C@@H](CCCCN)C(=O)O", "note": "[penetratin, reference compound]", "values": [{"measurement": "Percentage of Viable Cells, McCoy", "setting": "[1]", "result": "70.9 ± 5.3", "unit": "%"}, {"measurement": "Percentage of Viable Cells, HaCaT", "setting": "[2]", "result": "71.8 ± 3.0", "unit": "%"}]}
